Consider one molecule from ChEMBL document CHEMBL1139722, “N',2-diphenylquinoline-4-carbohydrazide based NK3 receptor antagonists” (Bioorg Med Chem Lett, 2006).

Sequences of proteins named here, by UniProt entry; tags and fusion partners are left off.
UniProt P29371, whole entry: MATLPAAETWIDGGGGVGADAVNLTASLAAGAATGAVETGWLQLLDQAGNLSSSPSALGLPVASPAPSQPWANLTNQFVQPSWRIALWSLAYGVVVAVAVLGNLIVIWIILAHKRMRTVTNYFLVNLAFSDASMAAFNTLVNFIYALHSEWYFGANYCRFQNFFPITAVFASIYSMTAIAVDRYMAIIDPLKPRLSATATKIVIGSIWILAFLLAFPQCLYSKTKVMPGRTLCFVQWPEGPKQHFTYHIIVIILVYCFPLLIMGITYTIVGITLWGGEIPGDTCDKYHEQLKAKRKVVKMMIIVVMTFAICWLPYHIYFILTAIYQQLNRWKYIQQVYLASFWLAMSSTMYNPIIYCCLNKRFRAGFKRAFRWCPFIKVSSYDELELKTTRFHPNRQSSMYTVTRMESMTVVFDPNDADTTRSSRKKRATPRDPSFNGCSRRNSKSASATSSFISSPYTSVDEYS

In this assay the target is Neuromedin-K receptor (Homo sapiens, UniProt P29371). Nature of the assay: Displacement of [125I]neurokinin B from cloned human NK3 receptor expressed in CHO cells. Type of assay: cell-based. In general terms: Displacement assays read how much labelled ligand stays bound in the presence of the test substance.

One may read the IC50 as the concentration at which inhibition is half-maximal. A low value points to greater potency in that assay. As for `CC[C@H](NC(=O)c1c(O)c(-c2ccccc2)nc2ccccc12)c1ccccc1` [TALNETANT], the IC50 was 2.4 nM (antagonist).
